Publication PMC5248591 (Journal of Clinical Pharmacology, 2016)

Tests used:
[1] = test system: BCR/SYK‐mediated B‐cell activation; conditions: SAD 200‐ and 300‐mg cohorts combined
[2] = test system: FcεR1/SYK‐mediated basophil degranulation; conditions: MAD

## CC(=O)O.NC(=O)c1cnc(N[C@@H]2CCCC[C@@H]2N)nc1Nc1cccc(-n2nccn2)c1 [PRT062607, 4‐((3‐(2H‐1,2,3‐triazol‐2‐yl)phenyl)amino)‐2‐(((1R,2S)‐2‐aminocyclohexyl)amino)pyrimidine‐5‐carboxamide acetate]
[1]
  reversal of inhibition of BCR‐mediated B‐cell activation: returned to predose levels after 24 hours
[2]; 33 mg
  inhibition in the basophil degranulation assay: Only modest inhibition
[2]; 110 mg
  inhibition in the basophil degranulation assay: complete inhibition

Read-outs that look alike come from different tables or passages of the source.
